Measured values published in patent US11939331B2, “Tricyclic heterocycles as FGFR inhibitors” (Incyte Corporation, priority 2021, dated 2024).

Amino acid sequences for entries named in this document (tags omitted). Residues count along the entry.
UniProt P22607, 23-806 limits assumed: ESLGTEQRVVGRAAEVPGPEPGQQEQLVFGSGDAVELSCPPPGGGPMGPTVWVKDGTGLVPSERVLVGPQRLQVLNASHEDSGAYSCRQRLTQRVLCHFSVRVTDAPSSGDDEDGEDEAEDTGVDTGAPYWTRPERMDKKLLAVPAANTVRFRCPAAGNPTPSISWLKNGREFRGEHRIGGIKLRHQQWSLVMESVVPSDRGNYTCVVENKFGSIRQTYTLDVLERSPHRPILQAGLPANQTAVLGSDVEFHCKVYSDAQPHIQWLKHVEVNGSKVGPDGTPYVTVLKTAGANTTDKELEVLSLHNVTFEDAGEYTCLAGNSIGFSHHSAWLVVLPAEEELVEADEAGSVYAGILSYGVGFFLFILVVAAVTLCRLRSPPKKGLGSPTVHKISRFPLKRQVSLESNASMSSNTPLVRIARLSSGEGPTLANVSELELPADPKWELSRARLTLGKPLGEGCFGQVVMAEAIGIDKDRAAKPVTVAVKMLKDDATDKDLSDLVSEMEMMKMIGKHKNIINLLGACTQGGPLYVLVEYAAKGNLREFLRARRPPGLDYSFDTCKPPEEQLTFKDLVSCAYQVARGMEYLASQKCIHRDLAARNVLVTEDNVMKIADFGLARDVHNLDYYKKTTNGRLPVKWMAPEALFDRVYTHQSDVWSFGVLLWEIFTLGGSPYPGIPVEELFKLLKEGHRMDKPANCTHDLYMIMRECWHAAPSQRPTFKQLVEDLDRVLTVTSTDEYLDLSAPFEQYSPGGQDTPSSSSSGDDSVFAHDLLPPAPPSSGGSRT

Biological target: wild-type un-phosphorylated FGFR3 protein (Homo sapiens, UniProt P22607)
Assay: FGFR Enzymatic Assay (FRET peptide phosphorylation)
Details: read-out: FGFR3 IC50, pre-incubated for 4 hours, tested form: TFA

IC50: 1 to 10 nM
Structure (SMILES): Cn1cnc(-c2cnc3ccn4c(C(N)=O)c(-c5c(Cl)cccc5Cl)nc4c3c2)c1
